Test results published in ChEMBL document CHEMBL1132351, “Synthesis, in vitro pharmacology, and molecular modeling of very potent tacrine-huperzine A hybrids as acetylcholinesterase inhibitors of potential interest for the treatment of Alzheimer's disease” (J Med Chem, 1999).

Assay: Drug concentration that reaches 50% of antagonism index (AI); No reversion at 10 uM concentration.
Assay type: functional

For CCCCC1=CC2Cc3nc4ccccc4c(N)c3C(C1)C2 (stereo unspecified), which AI50 is on record?
The AI50 was “No reversion”.
